ChEMBL document CHEMBL3232813, “The identification, analysis and structure-based development of novel inhibitors of 6-hydroxymethyl-7,8-dihydropterin pyrophosphokinase” (Bioorg Med Chem, 2014)

Target: T1, 2-amino-4-hydroxy-6-hydroxymethyldihydropteridine pyrophosphokinase (Escherichia coli (strain K12)) (UniProt P26281)
T1 sequence (whole entry): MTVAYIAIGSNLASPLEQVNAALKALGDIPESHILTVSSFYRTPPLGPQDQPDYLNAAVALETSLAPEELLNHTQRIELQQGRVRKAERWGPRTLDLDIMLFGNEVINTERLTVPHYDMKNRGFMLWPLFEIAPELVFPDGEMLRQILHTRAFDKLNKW
Assay: Inhibition of GST-tagged Escherichia coli HPPK expressed in Escherichia coli using 6-hydroxymethyl-7,8-dihydropterin hydrochloride as substrate at 250 uM after 20 mins by luminescence assay
Procedure, shortened: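 GST tag cleaved from E. coli HPPK; 5 ng enzyme used. Reaction contained 0.75 µM dihydropterin substrate, 0.75 µM ATP, 100 mM Tris-HCl pH 8.5, 10 mM MgCl2, 10 mM BME, 0.01% Tween 20, 0.01% BSA and 5% DMSO. Compound present at 250 µM. Ran 20 min at 23 °C. Unconsumed ATP read by Kinase-Glo luminescence and reported as % inhibition.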

SMILES | inhibition [%]
Nc1nc(=O)[nH]c2nc[nH]c12 | 48
Cc1nc2c(=O)[nH]c(N)nc2[nH]1 | 49
